The target of the data set is Potassium voltage-gated channel subfamily H member 2 (Homo sapiens, UniProt Q12809).

By UniProt entry, the sequences of proteins in these tests, tags left out. Where a name states a change or a piece, a line headed by the entry shows the natural chain unless it says otherwise.
UniProt Q12809: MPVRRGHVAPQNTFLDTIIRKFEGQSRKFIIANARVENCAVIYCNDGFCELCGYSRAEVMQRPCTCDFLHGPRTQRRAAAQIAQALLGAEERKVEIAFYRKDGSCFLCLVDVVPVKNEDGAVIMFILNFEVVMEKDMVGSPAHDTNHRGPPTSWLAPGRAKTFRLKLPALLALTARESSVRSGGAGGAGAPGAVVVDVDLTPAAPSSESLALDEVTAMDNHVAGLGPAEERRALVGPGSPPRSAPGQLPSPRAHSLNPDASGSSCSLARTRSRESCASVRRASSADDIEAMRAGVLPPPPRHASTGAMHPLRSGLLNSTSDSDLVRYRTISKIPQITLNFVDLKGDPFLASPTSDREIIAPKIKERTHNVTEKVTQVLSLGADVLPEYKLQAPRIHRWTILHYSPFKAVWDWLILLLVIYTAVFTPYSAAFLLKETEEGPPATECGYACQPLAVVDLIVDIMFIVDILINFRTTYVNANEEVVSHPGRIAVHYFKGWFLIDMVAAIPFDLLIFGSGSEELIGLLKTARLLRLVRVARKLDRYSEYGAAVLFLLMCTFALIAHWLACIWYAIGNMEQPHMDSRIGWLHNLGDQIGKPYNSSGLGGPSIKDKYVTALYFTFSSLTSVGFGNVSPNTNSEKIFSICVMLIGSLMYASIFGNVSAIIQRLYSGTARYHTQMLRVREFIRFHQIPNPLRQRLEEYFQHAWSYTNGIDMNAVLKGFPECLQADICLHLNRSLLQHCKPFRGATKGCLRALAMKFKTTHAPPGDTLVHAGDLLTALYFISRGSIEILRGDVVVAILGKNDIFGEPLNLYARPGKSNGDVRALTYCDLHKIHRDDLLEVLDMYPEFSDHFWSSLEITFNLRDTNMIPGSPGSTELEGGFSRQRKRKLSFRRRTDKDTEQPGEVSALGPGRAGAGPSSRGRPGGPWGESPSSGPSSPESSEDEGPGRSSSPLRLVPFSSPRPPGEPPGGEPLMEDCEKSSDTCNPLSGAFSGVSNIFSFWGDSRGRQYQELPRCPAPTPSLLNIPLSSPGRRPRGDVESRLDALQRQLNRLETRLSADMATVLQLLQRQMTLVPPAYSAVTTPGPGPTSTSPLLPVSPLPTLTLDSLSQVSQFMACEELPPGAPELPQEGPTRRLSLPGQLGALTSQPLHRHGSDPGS

One may read the IC50 as the concentration at which inhibition is half-maximal. Read a high IC50 as weaker potency in that assay. `CCOc1ccc(-c2nnc([C@H]3C[C@H](NC(=O)c4ccccn4)C3)n2-c2ccccc2F)nc1` displayed an IC50 greater than 25 µM.

These data come from BindingDB's records for doi:10.1021/acs.jmedchem.1c01264 (Symeres, 2021).
